# Molecular target: RORγ (Homo sapiens, UniProt P51449)
# Amino acid sequences for entries named in this document (tags omitted). Residues count along the entry.
# UniProt P51449, 269-508 limits assumed: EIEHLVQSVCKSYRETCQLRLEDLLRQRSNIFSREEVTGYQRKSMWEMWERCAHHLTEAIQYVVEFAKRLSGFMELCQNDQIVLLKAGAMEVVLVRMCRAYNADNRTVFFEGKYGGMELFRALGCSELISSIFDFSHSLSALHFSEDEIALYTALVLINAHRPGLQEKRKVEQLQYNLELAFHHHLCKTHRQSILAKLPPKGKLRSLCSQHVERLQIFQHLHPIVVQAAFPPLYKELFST
# Test: Reporter Gene Assay (RGA): nuclear receptor transactivation assay, inhibition of RORγ transactivation of a luciferase reporter in transiently transfected HEK 293 cells
# Assay type: cell-based
# Details: read-out: RGA IC50
smiles,measurement,value
CCS(=O)(=O)c1ccc(CNc2nc3cnc(-c4c(C)ncnc4C4CC4)nc3n(C(C)C)c2=O)cc1,IC50,162 nM
